From PubChem BioAssay (NCI)
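Following 48 hours of exposure in 96-well plates, responses at five concentrations were used to interpolate endpoints linearly. Here, GI50 denotes the concentration required for 50% inhibition of growth. TGI: concentration producing complete growth inhibition.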

How the values were obtained:
Assay in all cases: inhibition of tumour cell growth, NCI panel, 48 h
[1] = tested on: OVCAR-4 ovarian
[2] = tested on: HCT-15 colon
[3] = tested on: SNB-19 CNS
[4] = tested on: OVCAR-5 ovarian
[5] = tested on: HL-60(TB) leukemia
[6] = tested on: KM12 colon
[7] = tested on: TK-10 renal
[8] = tested on: UACC-257 melanoma
[9] = tested on: T-47D breast
[10] = tested on: NCI-H460 lung
[11] = tested on: M14 melanoma
[12] = tested on: MOLT-4 leukemia
[13] = tested on: NCI/ADR-RES ovarian
[14] = tested on: SW-620 colon
[15] = tested on: OVCAR-8 ovarian
[16] = tested on: SF-295 CNS
[17] = tested on: MDA-N
[18] = tested on: SN12C renal
[19] = tested on: LOX IMVI melanoma
[20] = tested on: OVCAR-3 ovarian
[21] = tested on: NCI-H23 lung
[22] = tested on: HS 578T breast
[23] = tested on: MALME-3M melanoma
[24] = tested on: EKVX NSCLC
[25] = tested on: NCI-H322M lung
[26] = tested on: A549 NSCLC
[27] = tested on: HT29 colon
[28] = tested on: IGROV1 ovarian
[29] = tested on: NCI-H226 lung
[30] = tested on: SK-MEL-2 melanoma
[31] = tested on: HOP-62 NSCLC
[32] = tested on: MDA-MB-435
[33] = tested on: MCF7 breast
[34] = tested on: HCT-116 colon
[35] = tested on: CCRF-CEM leukemia
[36] = tested on: BT-549 breast
[37] = tested on: SR leukemia
[38] = tested on: SK-MEL-28 melanoma
[39] = tested on: PC-3 prostate
[40] = tested on: UACC-62 melanoma
[41] = tested on: SK-MEL-5 melanoma
[42] = tested on: NCI-H522 lung
[43] = tested on: 786-0 renal
[44] = tested on: ACHN renal
[45] = tested on: HOP-92 NSCLC
[46] = tested on: COLO 205 colon
[47] = tested on: U251 CNS
[48] = tested on: A498 renal
[49] = tested on: RXF 393 renal
[50] = tested on: RPMI-8226 leukemia
[51] = tested on: UO-31 renal
[52] = tested on: SF-268 CNS
[53] = tested on: DU-145 prostate
[54] = tested on: K-562 leukemia
[55] = tested on: MDA-MB-231 breast
[56] = tested on: CAKI-1 renal
[57] = tested on: SF-539 CNS
[58] = tested on: SNB-75 CNS
[59] = tested on: SK-OV-3 ovarian

[N-]=[N+]=Nc1ccc([As](=O)(O)O)cc1
GI50 [1]: > 100 µM | TGI [1]: > 100 µM | GI50 [2]: > 100 µM | TGI [2]: > 100 µM | GI50 [3]: > 100 µM | TGI [3]: > 100 µM | GI50 [4]: > 100 µM | TGI [4]: > 100 µM | GI50 [5]: > 100 µM | TGI [5]: > 100 µM | GI50 [6]: > 100 µM | TGI [6]: > 100 µM | GI50 [7]: > 100 µM | TGI [7]: > 100 µM | GI50 [8]: > 100 µM | TGI [8]: > 100 µM | GI50 [9]: > 100 µM | TGI [9]: > 100 µM | GI50 [10]: > 100 µM | TGI [10]: > 100 µM | GI50 [11]: > 100 µM | TGI [11]: > 100 µM | GI50 [12]: > 100 µM | TGI [12]: > 100 µM | GI50 [13]: > 100 µM | TGI [13]: > 100 µM | GI50 [14]: > 100 µM | TGI [14]: > 100 µM | GI50 [15]: > 100 µM | TGI [15]: > 100 µM | GI50 [16]: > 100 µM | TGI [16]: > 100 µM | GI50 [17]: > 100 µM | TGI [17]: > 100 µM | GI50 [18]: > 100 µM | TGI [18]: > 100 µM | GI50 [19]: > 100 µM | TGI [19]: > 100 µM | GI50 [20]: > 100 µM | TGI [20]: > 100 µM | GI50 [21]: > 100 µM | TGI [21]: > 100 µM | GI50 [22]: > 100 µM | TGI [22]: > 100 µM | GI50 [23]: > 100 µM | TGI [23]: > 100 µM | GI50 [24]: > 100 µM | TGI [24]: > 100 µM | GI50 [25]: > 100 µM | TGI [25]: > 100 µM | GI50 [26]: > 100 µM | TGI [26]: > 100 µM | GI50 [27]: > 100 µM | TGI [27]: > 100 µM | GI50 [28]: > 100 µM | TGI [28]: > 100 µM | GI50 [29]: > 100 µM | TGI [29]: > 100 µM | GI50 [30]: > 100 µM | TGI [30]: > 100 µM | GI50 [31]: > 100 µM | TGI [31]: > 100 µM | GI50 [32]: > 100 µM | TGI [32]: > 100 µM | GI50 [33]: > 100 µM | TGI [33]: > 100 µM | GI50 [34]: > 100 µM | TGI [34]: > 100 µM | GI50 [35]: > 100 µM | TGI [35]: > 100 µM | GI50 [36]: > 100 µM | TGI [36]: > 100 µM | GI50 [37]: > 100 µM | TGI [37]: > 100 µM | GI50 [38]: > 100 µM | TGI [38]: > 100 µM | GI50 [39]: > 100 µM | TGI [39]: > 100 µM | GI50 [40]: > 100 µM | TGI [40]: > 100 µM | GI50 [41]: > 100 µM | TGI [41]: > 100 µM | GI50 [42]: > 100 µM | TGI [42]: > 100 µM | GI50 [43]: > 100 µM | TGI [43]: > 100 µM | GI50 [44]: > 100 µM | TGI [44]: > 100 µM | GI50 [45]: > 100 µM | TGI [45]: > 100 µM | GI50 [46]: > 100 µM | TGI [46]: > 100 µM | GI50 [47]: > 100 µM | TGI [47]: > 100 µM | GI50 [48]: > 100 µM | TGI [48]: > 100 µM | GI50 [49]: > 100 µM | TGI [49]: > 100 µM | GI50 [50]: > 100 µM | TGI [50]: > 100 µM | GI50 [51]: > 100 µM | TGI [51]: > 100 µM | GI50 [52]: > 100 µM | TGI [52]: > 100 µM | GI50 [53]: > 100 µM | TGI [53]: > 100 µM | GI50 [54]: > 100 µM | TGI [54]: > 100 µM | GI50 [55]: > 100 µM | TGI [55]: > 100 µM | GI50 [56]: > 100 µM | TGI [56]: > 100 µM | GI50 [57]: > 100 µM | TGI [57]: > 100 µM | GI50 [58]: > 100 µM | TGI [58]: > 100 µM | GI50 [59]: > 100 µM | TGI [59]: > 100 µM
